# From PubChem BioAssay AID588683 (Broad Institute, 2011)
# Chains of the proteins cited; added tags and fusions are not shown.
# UniProt Q14145, whole entry, looked up: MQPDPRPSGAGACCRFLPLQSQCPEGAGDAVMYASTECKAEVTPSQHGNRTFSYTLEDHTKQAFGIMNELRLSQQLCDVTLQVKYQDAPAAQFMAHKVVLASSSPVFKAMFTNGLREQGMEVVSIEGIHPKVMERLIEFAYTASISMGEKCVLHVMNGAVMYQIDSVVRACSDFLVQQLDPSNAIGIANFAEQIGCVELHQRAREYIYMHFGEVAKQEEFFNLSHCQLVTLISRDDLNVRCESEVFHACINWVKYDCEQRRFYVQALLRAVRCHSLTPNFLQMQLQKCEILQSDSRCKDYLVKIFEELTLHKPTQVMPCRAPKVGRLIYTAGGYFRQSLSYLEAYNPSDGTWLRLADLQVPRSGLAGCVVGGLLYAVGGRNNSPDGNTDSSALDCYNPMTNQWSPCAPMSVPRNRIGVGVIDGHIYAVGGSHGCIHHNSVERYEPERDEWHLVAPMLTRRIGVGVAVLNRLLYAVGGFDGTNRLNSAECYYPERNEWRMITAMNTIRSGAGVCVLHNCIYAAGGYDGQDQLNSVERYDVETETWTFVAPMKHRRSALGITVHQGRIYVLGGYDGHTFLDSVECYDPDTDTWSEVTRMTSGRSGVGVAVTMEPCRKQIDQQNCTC
# UniProt Q16236, whole entry, looked up: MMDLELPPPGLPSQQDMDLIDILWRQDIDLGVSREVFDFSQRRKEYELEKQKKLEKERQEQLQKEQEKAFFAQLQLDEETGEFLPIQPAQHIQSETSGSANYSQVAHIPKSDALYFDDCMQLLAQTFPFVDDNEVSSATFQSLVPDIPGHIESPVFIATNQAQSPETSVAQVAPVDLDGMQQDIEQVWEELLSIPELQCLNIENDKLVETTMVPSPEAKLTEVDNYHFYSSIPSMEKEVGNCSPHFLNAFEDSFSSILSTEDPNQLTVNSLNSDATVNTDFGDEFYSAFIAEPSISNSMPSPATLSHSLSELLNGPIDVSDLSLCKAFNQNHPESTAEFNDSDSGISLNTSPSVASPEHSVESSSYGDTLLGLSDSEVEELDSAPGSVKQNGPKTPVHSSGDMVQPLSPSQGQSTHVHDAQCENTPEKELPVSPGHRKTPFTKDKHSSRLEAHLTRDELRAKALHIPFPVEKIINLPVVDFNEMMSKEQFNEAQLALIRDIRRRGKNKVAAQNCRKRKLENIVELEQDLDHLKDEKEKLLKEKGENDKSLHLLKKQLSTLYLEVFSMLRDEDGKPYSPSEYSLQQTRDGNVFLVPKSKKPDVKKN
# Only a part is listed here, and it is no random draw. Potency and affinity values are given separately. Activity calls are given as the source filed them. How the calls were made is not given here.
# Molecular target: Kelch-like ECH-associated protein 1 (Homo sapiens) + Nuclear factor erythroid 2-related factor 2 (Homo sapiens) (UniProt Q14145+Q16236)
# Assay: disruptors of Keap1 binding to Nrf2 peptide – biochemical, fluorescence polarization, cherry-picked samples, dose response (AID 588683);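 further: Kelch domain of Keap1 binding a fluorescein-labelled 9mer Nrf2 peptide; more negative means stronger inhibition of peptide binding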
# Conditions: plate reader; at 26 µM (top of the series)
smiles,measurement,value
CCCN1CCC(Nc2cc(OC)cc(OC)c2)CC1,"activity change, negative = inhibition",inactive: -9.72%
